Experimental data as given in patent EP2042507A1, “Insecticidal derivatives of phosphorylated aminoheterocycles” (dated 2009).

Columns and labels:
[1] = tested on: Phaedon cochleariae; assay: Phaedon cochleariae - test (spray application); settings: application rate of 500 g/ha, Chinese cabbage leaf-disks, mustard beetle larvae
[2] = tested on: Tetranychus urticae; assay: Tetranychus urticae - test; OP-resistant (spray application); settings: application rate of 20 g/ha, French bean, all stages of the two spotted spidermite
[3] = tested on: Myzus persicae; assay: Myzus persicae - test (spray application); settings: application rate of 500 g/ha, Chinese cabbage leaf-disks, all instars of the green peach aphid

Measured: activity (mortality in %)

CCCSP(=S)(OCC)N1CCO/C1=N\[C@H]1CCc2ccccc21 (stereo partly drawn)
≥ 80%: [1] | [2] | [3]
